Data on 10 compounds can be found in BindingDB's records for patent US11066414 (Gilead Sciences, 2021).

Sequences of proteins named here, by UniProt entry; tags and fusion partners are left off.
UniProt P41279, whole entry: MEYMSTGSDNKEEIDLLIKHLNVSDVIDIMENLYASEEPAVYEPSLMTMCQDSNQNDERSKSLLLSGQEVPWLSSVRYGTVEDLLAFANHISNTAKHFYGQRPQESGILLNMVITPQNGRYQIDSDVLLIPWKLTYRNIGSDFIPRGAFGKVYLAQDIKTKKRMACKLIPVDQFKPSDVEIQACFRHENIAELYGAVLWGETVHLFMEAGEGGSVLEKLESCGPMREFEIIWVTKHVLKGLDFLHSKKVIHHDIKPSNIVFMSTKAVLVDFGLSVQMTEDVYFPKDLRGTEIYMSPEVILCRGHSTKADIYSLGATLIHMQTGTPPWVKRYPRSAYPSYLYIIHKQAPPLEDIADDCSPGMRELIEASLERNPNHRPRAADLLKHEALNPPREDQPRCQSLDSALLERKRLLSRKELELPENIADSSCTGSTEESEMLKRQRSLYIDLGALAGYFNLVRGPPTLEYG

The assay addresses Mitogen-activated protein kinase kinase kinase 8 (Homo sapiens, UniProt P41279). Kind of assay: High Throughput Biochemical Assay. The note with it: IC50 (nM). How it is done:
EGFR activity was measured using KinEASE (Cisbio), a time-resolved fluorescence resonance energy transfer (TR-FRET) immunoassay. In this assay, EGFR-catalyzes the phosphorylation of a universal Tyrosine kinase peptide substrate labeled with XL665. Europium conjugated phosphor-tyrosine specific antibody binds the resulting phosphorylated peptide. Formation of phosphorylated peptide is quantified by TR-FRET with Europium as the donor and XL665 the acceptor. The assay was performed in two main steps. The first step is the kinase reaction step and the second step is the detection step with TR-FRET reagents.
By IC50 is commonly meant the concentration needed to halve the response being measured. Read a low IC50 as greater potency in that assay. In the case of `CC(C)N1C=C([C@@H](Nc2cc(Cl)c3ncc(C#N)c(Nc4ccc(F)c(Cl)c4)c3c2)c2cncc(C(=O)N3CCCC3)c2)NN1` [US11066414, Compound 21], half-maximal inhibition (IC50) was put at 14 nM. That is a double-digit nanomolar value.

Turning to `CC(C)(C)CNc1c(C#N)cnc2c(Br)cc(N[C@H](C3=CN(C4CC4)NN3)c3cccc4c3CCN4)cc12` [US11066414, Compound 24], the IC50 amounted to 12 nM.

In turn, `CC(C)N1C=C([C@@H](Nc2cc(Cl)c3ncc(C#N)c(Nc4ccc(F)c(Cl)c4)c3c2)c2cccc3c2CNN3C)NN1` [US11066414, Compound 28] showed an IC50 of 12 nM.

Compound `N#Cc1cnc2c(Cl)cc(N[C@H](C3=CNNN3)c3cccc4c3CN(C3COC3)C4)cc2c1Nc1ccc(F)c(Cl)c1` [US11066414, Compound 47] displayed an IC50 of 25 nM.

Compound `N#Cc1cnc2c(Cl)cc(N[C@H](C3=CN(C4COC4)NN3)c3cnc(Cl)cc3Cl)cc2c1Nc1ccc(F)c(Cl)c1` [US11066414, Compound 323] had an IC50 of 86 nM.

As for `CC(C)(C)N1CCC(N2C=C([C@@H](Nc3cc(Cl)c4ncc(C#N)c(Nc5ccc(F)c(Cl)c5)c4c3)c3cnc(Cl)cc3Cl)NN2)CC1` [US11066414, Compound 326], the 50% inhibitory concentration (IC50) is 34 nM.

As to `N#Cc1cnc2c(Cl)cc(N[C@H](C3=CN(CCO)NN3)c3cc(Br)cnc3Cl)cc2c1Nc1ccc(F)c(Cl)c1` [US11066414, Compound 327], inhibition was half-maximal at 15 nM (IC50).

Compound `CCN1CCC(N2C=C([C@H](c3cscn3)N(CC)c3cc(Cl)c4ncc(C#N)c(Nc5ccc(F)c(Cl)c5)c4c3)NN2)CC1` [US11066414, Compound 374] gave an IC50 of 37 nM.

With `CC(C)(C)CNc1c(C#N)cnc2c(Cl)cc(N[C@H](C3=CN(C(C)(C)C(F)F)NN3)c3cccc4cnccc34)cc12` [US11066414, Compound 683], half-maximal inhibition (IC50) was put at 35 nM. The IC50 values of the last two compounds are within 1.5-fold of each other.

On to `CC(C)(C)CNc1c(C#N)cnc2c(Cl)cc(N[C@H](C3=CN(C(C)(C)CF)NN3)c3cccc4cnccc34)cc12` [US11066414, Compound 684], for which the half-maximal inhibitory concentration (IC50) came out at 14 nM.
